Assay results taken from ChEMBL document CHEMBL3861988, “Discovery of Selective Inhibitors Targeting Acetylcholinesterase 1 from Disease-Transmitting Mosquitoes” (J Med Chem, 2016).

What was measured:
[1] = Selectivity ratio of IC50 for human recombinant AChE to IC50 for Aedes aegypti recombinant AChE1
[2] = Selectivity ratio of IC50 for human recombinant AChE to IC50 for Anopheles gambiae recombinant AChE1

CCN1CCN(C2CCN(C(=O)COc3ccc(-c4ccccc4)cc3)CC2)CC1
Ratio IC50 [1]: 141
Ratio IC50 [2]: 141
